Laboratory results from patent US20260023070A1, “OPTOGENETIC ALPHA-SYNUCLEIN AGGREGATION SYSTEM-BASED COMPOUND SCREENING PLATFORM IN PD-hiPSC-mDA NEURONS” (The Johns Hopkins University, priority 2022, published 2026).

System: opto-α-syn SH-SY5Y cells
Assay: OASIS-based high-content imaging assay of light-induced α-syn aggregation (5G4 staining, Aggregates Induction Score)
Type: cell-based, human
Procedure: The opto-α-syn expressing SH-SY5Y cells were seeded in 96-well black flat bottom imaging microplates (Falcon) at 30,000 cells per well in 100 μL of complete media using E1-ClipTip electronic multichannel pipette (Thermo Fisher Scientific) and incubated in 37° C. and 5% CO2 humidified incubator. After 18 h of incubation, 10 μL of 10 μM compounds (column 2 to 10) or 1% DMSO (column 1 and 12) were added (final concentration of DMSO is 0.1%). In order to induce aggregations, the plates were illuminated with blue light (26 μW/mm^2) on customized blue light illumination 96-well plates for 2 h. […] To analyze images, the automated aggregation quantification algorithm and cell counting algorithm in the form of macro are developed using ImageJ software. […] The Aggregates Induction Score (AIS) is calculated using, the following equation: […]
where N^agg is the number of aggregates, ^Ntotal is the number of total cells. […] The hit selection strategy was based on calculated AIS; hits were defined as AIS<0.5. […] Two independent experiments were performed, and total 10 images per well are analyzed to calculate AIS. […]
As illustrated in FIGS. 9A-9B, high-content imaging screening with the optogenetic α-syn aggregation system was performed. The measurement of 5G4^+ aggregates in opto-mock or opto-α-syn SH-SY5Y neuronal cells was assessed. […] Number of DAPI from the original images were counted (FIG. 9B). […]

## C[C@@H]1CN(Cc2ccc(F)cc2)CCN1C(=O)COc1ccc(Cl)cc1NC(N)=O [BX 471]
  AIS, aggregates induction score: 0.97
